The target of this experiment is mouse KOR (Mus musculus, UniProt P33534). The experiment can be described thus: Saturation binding of [3H]-DPN, HEK293 cell membrane preparations. Conditions: 1 h at 37 °C.

Sequences of proteins named here, by UniProt entry; tags and fusion partners are left off.
UniProt P33534, whole entry: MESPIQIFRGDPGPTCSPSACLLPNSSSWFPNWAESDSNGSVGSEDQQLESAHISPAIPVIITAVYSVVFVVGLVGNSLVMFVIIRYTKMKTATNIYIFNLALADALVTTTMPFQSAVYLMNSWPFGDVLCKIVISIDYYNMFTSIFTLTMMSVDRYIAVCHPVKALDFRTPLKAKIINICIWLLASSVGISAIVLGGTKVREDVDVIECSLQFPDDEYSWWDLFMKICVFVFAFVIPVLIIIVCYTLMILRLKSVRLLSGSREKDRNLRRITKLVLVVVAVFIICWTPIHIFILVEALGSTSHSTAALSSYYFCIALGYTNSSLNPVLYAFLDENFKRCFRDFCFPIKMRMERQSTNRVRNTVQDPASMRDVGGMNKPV

These results are taken from paper PMC8406418, “Plant-Derived Cyclotides Modulate κ-Opioid Receptor Signaling” (Journal of Natural Products, 2021).

Only a part of the results on these compounds is given; other tests are left out.

Usually Kd stands for a measure of binding affinity in units of concentration.

With [^3H]-Diprenorphine, the “Hill slope of the saturation binding curve” value came out at 1.00 ± 0.07 and the “maximum number of receptor binding sites (Bmax)” value is 7166 ± 147 femtomoles of ligand bound per milligram of membrane. In addition, under “read-out: equilibrium dissociation constant (Kd)”, the Kd was determined as 0.87 nM.
